{
  "source": "patent US20190022104A1",
  "about": "(priority 2016, published 2019)",
  "test_system": "mouse sepsis model (LPS 75 mg/kg)",
  "assay": "Effects of different doses of pirenzepine in LPS mouse sepsis model",
  "conditions": "C57BL/6 mice",
  "data": [
    {"smiles": "CN1CCN(CC(=O)N2c3ccccc3C(=O)Nc3cccnc32)CC1", "note": "[pirenzepine, 11-[(4-methylpiperazin-1-yl)acetyl]-5,11-dihydro-6H-pyrido[2,3-b][1,4]benzodiazepin-6-one]", "values": [
      {"measurement": "mean survival time", "setting": "0.3 mg/kg i.p. pretreatment 30 min before LPS 75 mg/kg i.p.", "result": "29.600 ± 3.686", "unit": "h"},
      {"measurement": "average survival time", "setting": "1.2 mg/kg i.p. pretreatment 30 min before LPS 75 mg/kg i.p.", "result": "24.030 ± 2.437", "unit": "h"}
    ]}
  ]
}
